Results on 18 molecules are retold here after PubChem BioAssay AID445 (National Center for Advancing Translational Sciences (NCATS), 2006).

The other results are listed elsewhere or left out. Inconclusive results are not listed. Active and inactive are the calls of the source. The call rests on the fitted dose curve; in most records, active means well fitted curve in the direction sought with a large enough effect in the signal ratio (not every such curve was filed as active); inconclusive means small, poorly fitted or top-dose-only effect, or a change in a side signal; inactive means flat fitted curve, though single readings scatter; the % refers to the signal ratio.

The nature of the assay: IkB Signaling.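 Further: 0% = basal untreated cells and 100% = reference inhibitor full response.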 The following applies: ABC-DLBCL IkBa-CBG/CBR dual luciferase ratio (green luciferase fused to IkBa over red control in OCI-Ly3 lymphoma cells), 4 h, scaled: untreated 0%, proteasome inhibitor 100%; at 57.1 µM (top of the series) unless noted. The source says: NIH Molecular Libraries Screening Centers Network [MLSCN]
NIH Chemical Genomics Center [NCGC]
Nuclear factor kappa-B (NF-kappa-B) plays an important role in normal B cell development and survival. Diffuse large B cell lymphoma (DLBCL) is the most commonly observed type of non-Hodgkin's lymphoma. Gene expression analysis has identified an activated B cell-like subtype of DLBCL (ABC-DLBCL) which expresses known NF-kappa-B target genes. […] However, targets upstream of IKK have been largely unexplored and so nodes upstream of IKK in the NF-kappa-B pathway remain untested due to the lack of chemical probes.
A cell-sensor assay for I-kappa-B-alpha stabilization was developed with NIH investigator Dr. R. Eric Davis in Dr. Louis M. Staudt's laboratory. The assay uses green (CBG68) and red (CBR) emitting beetle luciferases [Chroma-Glo(TM) developed by Promega Corp.] where the green luciferase is fused to I-kappa-B-alpha and the red luciferase is present in its native state. Both luciferase genes are stably present in the OCI-Ly3 human ABC DLBCL cell line, but their expression is under the control of tetracycline-inducible promoters. Following the addition of doxycycline to induce expression of the luciferases, the green luminescence in control cultures rises only slowly because the CBG fusion partner I-kappa-B-alpha is targeted by IKK activity for rapid degradation. In contrast, green luminescence rises rapidly in the presence of proteasome inhibitors or IKK inhibitors. The rise in red luminescence of CBR is not affected by proteasome or IKK inhibitors, and serves as normalization for cell number and nonspecific effects. Compounds were screened as a concentration-titration series that ranged from 57 uM to 0.7 nM.
NCGC Assay Protocol Summary:
Cells were seeded in 1536-well plates at 5000 cells/3ul in IMDM medium containing 0.5% FBS, w/o phenol red, L-glutamine, 25 mM HEPES, 3 mg/ml sodium bicarbonate. After centrifugation for 1 min. at 1000 rpm, 23 nl of compounds or DMSO were delivered to each well using a pin tool. Then 1ul 80ng/ml doxycycline was dispensed into white solid 1536-well plates and the plates were incubated at 37C/5% C02 in a cell incubator for 4 hrs. Then 4 ul Chroma-Glo luminescent substrate mix (Promega) was added to each well. The plate was incubated at R.T. for 10-15 min. The plates were measured on a ViewLux plate reader for green luminescence (540/20 nm filter) and red luminescence (618/8 nm filter). The green and red luminescent signals were corrected for red and green luminescence filter overlap using previously determined filter calibration constants (determined using the procedure outlined in the Promega Technical Manual). The %Activity was determined from the ratio of corrected green/red luminescent values. Green luminescent and ratio %Activity was determined by normalizing to the difference in signal between basal cells (0% Activity) and cells incubated with 10 uM of the proteasome inhibitor MG-132 (100% Activity). Red luminescent %Activity was normalized to the difference between red luminesence in basal cells (0%Activity) and zero luminescence (-100% Activity).
Concentration-response curves were fitted to the signals arising from the green luminescence (I-kappa-B-alpha-luciferase fusion; IkB-luc) and the red luminescence (unfused luciferase; luc) as well as the calculated ratio. The concentration-effect curves were then classified based on curve quality (r2), response magnitude and degree of measured activity. Compounds were then categorized based on their concentration-response curves for all three datasets (Ikb-luc, luc and ratio).
Keywords: IKK, I-kappa-B, IkB, IkBa, cytotoxicity, luminescence, MLSMR, MLSCN, NIH Roadmap, qHTS, NCGC
For the molecule `CCOP(=O)(Cl)Cl`, the IkBa stabilization activation was inactive: -2.56%.

In the case of `O=C(NCC1(N2CCOCC2)CCCCC1)c1ccccc1Br`, the IkBa stabilization activation was inactive: 1.27%.

On to `NC1CCCCC1.NP(=O)(O)N(CCCl)CCCl`, for which the IkBa stabilization activation is inactive: 0.563% [at 11.4 µM].

Take `N#CC1(Nc2ccccc2)CCN(CCc2ccccc2)CC1`: the IkBa stabilization activation was inactive: 1.07%.

As to `COc1ccccc1C(=O)NCC1(N2CCOCC2)CCCCC1`, the IkBa stabilization activation is inactive: -3.01%.

Consider `O=C(NCC1(N2CCOCC2)CCCCC1)c1ccc(Cl)cc1`, for which the IkBa stabilization activation was inactive: -1.46%.

For the molecule `O=C(OC1CN2CCC1CC2)C1c2ccccc2Oc2ccccc21` (stereo not drawn), the IkBa stabilization activation was inactive: 2.96%.

In the case of `O=C(O)C1(Nc2ccccc2)CCN(Cc2ccccc2)CC1`, the IkBa stabilization activation is inactive: 1.69% [at 11.4 µM].

Turning to `CCOc1ncccc1C(=O)NCC1(N2CCOCC2)CCCCC1`, the IkBa stabilization activation was inactive: -0.649%.

Take `CCC(CO)(C(=O)OC1CN2CCC1CC2)c1ccccc1` (stereo not drawn): the IkBa stabilization activation is inactive: 0.307%.

For `Fc1ccccc1NC1CCN(Cc2ccccc2)CC1`, the IkBa stabilization activation is inactive: 2.15%.

For `CN(C)C1(CNC(=O)c2ccc(C(C)(C)C)cc2)CCCCC1`, the IkBa stabilization activation is inactive: -1.52%.

Consider `Cc1ccccc1C(=O)NCC1(N(C)C)CCCCC1`, for which the IkBa stabilization activation is inactive: 1.32%.

For the molecule `O=C(NCC1(N2CCOCC2)CCCCC1)c1ccc([N+](=O)[O-])cc1`, the IkBa stabilization activation is inactive: -1.25%.

As for `O=C(NCC1(N2CCOCC2)CCCCC1)c1ccccc1[N+](=O)[O-]`, the IkBa stabilization activation was inactive: -1.55%.

`O=C(NCC1(N2CCOCC2)CCCCC1)c1ccccc1`: the IkBa stabilization activation was inactive: 0.196%.

Take `ClCCOP(OCCCl)OCCCl`: the IkBa stabilization activation was inactive: 0.247%.

On to `N/C(=N\O)c1c(N)no[n+]1[O-]`, for which the IkBa stabilization activation is inactive: 0.982%.
